Test results: paper PMC3378255 (ACS chemical neuroscience, 2012)

By UniProt entry, the sequences of proteins in these tests, tags left out. Where a name states a change or a piece, a line headed by the entry shows the natural chain unless it says otherwise.
UniProt P41145: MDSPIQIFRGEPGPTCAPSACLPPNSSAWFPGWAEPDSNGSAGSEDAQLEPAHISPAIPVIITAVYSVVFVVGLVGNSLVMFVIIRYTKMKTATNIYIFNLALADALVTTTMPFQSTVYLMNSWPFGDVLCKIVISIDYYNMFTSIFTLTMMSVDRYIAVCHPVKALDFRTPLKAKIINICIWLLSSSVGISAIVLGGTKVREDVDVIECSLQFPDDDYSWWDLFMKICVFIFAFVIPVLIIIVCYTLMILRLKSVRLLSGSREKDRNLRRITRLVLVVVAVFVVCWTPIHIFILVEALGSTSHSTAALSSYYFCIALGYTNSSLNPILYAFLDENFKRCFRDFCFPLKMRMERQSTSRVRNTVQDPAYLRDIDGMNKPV

Key:
[1] = target: kappa (κ) opioid receptor (KOR) (Homo sapiens, UniProt P41145); assay: KOR DiscoveRx β-arrestin PathHunter assay, antagonist mode; format: cell-based; settings: IC50, KOR antagonist HTS campaign hits
KOR = KOR (Homo sapiens, UniProt P41145); assay: KOR antagonist high content imaging β-arrestin translocation assay; format: cell-based; settings: high content imaging assays

Cc1ccc(S(=O)(=O)NCc2ccc(C(=O)NCCN(Cc3ccccc3)C(C)C)cc2)cc1 [3{1}, N-(2-(Benzyl(isopropyl)amino)ethyl)-4-((4-methylphenylsulfonamido)methyl)benzamide]
IC50 [1]: < 1000 nM

COc1ccc(N2CCN(CCCNC(=O)Cn3c(=O)c4cccn4c4c(C)ccnc43)CC2)cc1 [4{13}, N-(3-(4-(4-Methoxyphenyl)piperazin-1-yl)propyl)-2-(1-methyl-6-oxopyrido[2,3-e]pyrrolo[1,2-a]pyrazin-5(6H)-yl)acetamide]
selective for the KOR over both the DOR and MOR (KOR): over 10,000 fold
